Columns and labels:
Renin [1] = target: T1, Renin (Homo sapiens, UniProt P00797); assay: In vitro inhibitory activity against human plasma renin; assay type: cell-free
Renin [2] = target: T1, Renin; assay: In vitro inhibitory activity against man plasma renin; assay type: cell-free

By UniProt entry, the sequences of proteins in these tests, tags left out. Where a name states a change or a piece, a line headed by the entry shows the natural chain unless it says otherwise.
UniProt P00797: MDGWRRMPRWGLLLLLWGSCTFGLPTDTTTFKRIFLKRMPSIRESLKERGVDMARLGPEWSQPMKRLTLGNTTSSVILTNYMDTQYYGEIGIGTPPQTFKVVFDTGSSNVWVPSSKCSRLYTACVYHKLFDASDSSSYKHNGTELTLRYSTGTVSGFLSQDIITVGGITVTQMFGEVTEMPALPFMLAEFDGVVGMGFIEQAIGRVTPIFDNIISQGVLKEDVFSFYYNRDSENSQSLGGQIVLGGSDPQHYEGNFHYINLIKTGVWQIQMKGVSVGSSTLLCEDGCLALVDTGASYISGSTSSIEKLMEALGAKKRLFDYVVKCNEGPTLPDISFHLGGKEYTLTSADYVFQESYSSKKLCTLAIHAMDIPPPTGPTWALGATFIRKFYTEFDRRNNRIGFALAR

Row | IC50 (Renin [1]) [µM] | IC50 (Renin [2]) [µM] | Compound
1 | 10 | – | COC(=O)CC(O)[C@H](CC(C)C)NC(=O)[C@H](C)NC(=O)CC(O)[C@H](CC(C)C)NC(=O)[C@@H](NC(=O)[C@@H](Cc1ccccc1)NC(=O)OC(C)(C)C)C(C)C (stereo not given in full)
2 | 150 | 0.17 | COC(=O)C[C@H](O)[C@H](CC(C)C)NC(=O)[C@H](C)NC(=O)C[C@H](O)[C@H](CC(C)C)NC(=O)[C@H](Cc1c[nH]c2ccccc12)NC(=O)[C@H](Cc1c[nH]c2ccccc12)NC(=O)OC(C)(C)C
3 | > 100 | – | COC(=O)C[C@H](O)[C@H](CC(C)C)NC(=O)[C@H](C)NC(=O)C[C@H](O)[C@H](CC(C)C)NC(=O)[C@@H](Cc1c[nH]c2ccccc12)NC(=O)[C@H](Cc1c[nH]c2ccccc12)NC(=O)OC(C)(C)C
4 | > 100 | – | COC(=O)C[C@H](O)[C@H](CC(C)C)NC(=O)[C@H](C)NC(=O)C[C@H](O)[C@H](CC(C)C)NC(=O)[C@H](Cc1c[nH]c2ccccc12)NC(=O)[C@@H](Cc1c[nH]c2ccccc12)NC(=O)OC(C)(C)C

Source: ChEMBL document CHEMBL1123300 (J Med Chem, 1986)
